Among the data in patent US20050277645A1, “Sleep inducing compounds and methods relating thereto” (Neurocrine Biosciences, Inc., priority 2004, published 2005) are Ki values, retold here.

The chains behind the UniProt entries cited, without tags or fusion partners.
UniProt P35367, whole entry: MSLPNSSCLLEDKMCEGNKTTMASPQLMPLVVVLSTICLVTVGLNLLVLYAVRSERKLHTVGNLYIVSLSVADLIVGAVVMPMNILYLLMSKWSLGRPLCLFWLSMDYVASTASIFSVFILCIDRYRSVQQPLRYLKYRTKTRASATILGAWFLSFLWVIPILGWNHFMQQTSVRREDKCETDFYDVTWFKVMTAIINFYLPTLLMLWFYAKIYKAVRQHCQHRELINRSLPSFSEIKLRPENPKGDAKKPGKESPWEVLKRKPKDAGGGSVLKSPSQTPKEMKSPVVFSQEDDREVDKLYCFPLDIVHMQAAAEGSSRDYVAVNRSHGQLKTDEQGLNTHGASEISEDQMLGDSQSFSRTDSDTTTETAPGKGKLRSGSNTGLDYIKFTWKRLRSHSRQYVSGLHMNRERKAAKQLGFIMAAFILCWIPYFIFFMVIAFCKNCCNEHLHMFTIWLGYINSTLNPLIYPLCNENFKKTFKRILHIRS

The target in the experiment is T1, human H1 receptor (Homo sapiens, UniProt P35367).
T1 construct: expressed in transfected cells; host or cells: CHO cells (crude membranes)
Nature of the experiment: Human histamine H1 receptor binding assay. Here is the method: Compounds of the present invention may be evaluated for binding to the histamine H1 receptor by a standard binding assay. […] Non-specific binding is determined in the presence of excess (1 μM) doxepin. Bound and free ligand are separated by rapid vacuum filtration using a Packard 96-well cell harvester onto UniFilter GF/C filter plates (PerkinElmer) that has been pretreated with 1% polyethyleneimine. The filter plates are then washed with 600 μl phosphate buffered saline containing 0.01% (v/v) Triton-X100. Bound radioligand is determined by scintillation counting using a TopCount-NXT (Packard). Binding data is analyzed by nonlinear, least-squares curve fitting algorithms using GraphPad Prism (GraphPad Software, Inc. San Diego, Calif.) or ActivityBase (IDBS, Guildford, Surrey, UK).

pKi: −log10 of the molar value. Some results are limits rather than exact numbers.

On to `COc1ccc2c(c1)CC(CCN(C)C)=C2C(C)c1nc(C)cs1` (stereo not shown) [22-4], for which the pKi was at least 6.60.

Broadly, the pKi is the negative decadic logarithm of the Ki, by convention in mol/L.
